{
  "source": "patent US8268869B2",
  "about": "“Vinyl indazolyl compounds” (Eli Lilly and Company, priority 2009, dated 2012)",
  "tested_on": "bFGF induced ERK phosphorylation",
  "conditions": "female nude mice, oral gavage, 2 hours, bFGF i.v., heart tissue",
  "data": [
    {"smiles": "C[C@@H](Oc1ccc2[nH]nc(/C=C/c3cnn(CCO)c3)c2c1)c1c(Cl)cncc1Cl", "note": "[Example 1, (R)-(E)-2-(4-(2-(5-(1-(3,5-Dichloropyridin-4-yl)ethoxy)-1H-indazol-3-yl)vinyl)-1H-pyrazol-1-yl)ethanol]", "values": [
      {"measurement": "TEC90 (concentration necessary to achieve 90% inhibition of phospho-Erk)", "result": 28, "unit": "nM"}
    ]}
  ]
}
